Experimental data from patent US20130059818A1, “CARBOSILANE DENDRIMERS AND THE USE THEREOF AS ANTIVIRAL AGENTS” (UNIVERSIDAD DE ALCALA DE HENARES (UAH), priority 2010, published 2013).

Assay: Solubility in water
Conditions: qualitative, as isolated

**Q.** For `COC(=O)CCN(CCC[Si](C)(C)CCC[Si](C)(CCC[Si](C)(C)CCCN(CCC(=O)OC)CCC(=O)OC)CCC[Si](C)(CCC[Si](C)(CCC[Si](C)(C)CCCN(CCC(=O)OC)CCC(=O)OC)CCC[Si](C)(C)CCCN(CCC(=O)OC)CCC(=O)OC)CCC[Si](CCC[Si](C)(CCC[Si](C)(CCC[Si](C)(C)CCCN(CCC(=O)OC)CCC(=O)OC)CCC[Si](C)(C)CCCN(CCC(=O)OC)CCC(=O)OC)CCC[Si](C)(CCC[Si](C)(C)CCCN(CCC(=O)OC)CCC(=O)OC)CCC[Si](C)(C)CCCN(CCC(=O)OC)CCC(=O)OC)(CCC[Si](C)(CCC[Si](C)(CCC[Si](C)(C)CCCN(CCC(=O)OC)CCC(=O)OC)CCC[Si](C)(C)CCCN(CCC(=O)OC)CCC(=O)OC)CCC[Si](C)(CCC[Si](C)(C)CCCN(CCC(=O)OC)CCC(=O)OC)CCC[Si](C)(C)CCCN(CCC(=O)OC)CCC(=O)OC)CCC[Si](C)(CCC[Si](C)(CCC[Si](C)(C)CCCN(CCC(=O)OC)CCC(=O)OC)CCC[Si](C)(C)CCCN(CCC(=O)OC)CCC(=O)OC)CCC[Si](C)(CCC[Si](C)(C)CCCN(CCC(=O)OC)CCC(=O)OC)CCC[Si](C)(C)CCCN(CCC(=O)OC)CCC(=O)OC)CCC(=O)OC`, which Solubility in water is on record?
**A.** insoluble in water
